The source of these data is patent US20220288223A1, “ACTIVATABLE SPECIFIC BINDING MEMBER COMPLEXES, AND METHODS OF MAKING AND USING SAME” (The Regents of the University of California, priority 2019, published 2022).

The conditions of data set [1]: dose limiting skin toxicities; cited from earlier work.
Data set [2] relates to head and neck cancer cell line (Cal-27). In words: Immunohistocytochemistry, HRP-dependent DAB staining (FIG. 4). The conditions noted are these: FIG. 4 panel B. The data set is classed as cell-based. From the text: Thrombin treatment activated the PA-cetuximab to allow binding to EGFR protein and cells (Cal-27) that express EGFR (FIG. 4).

As to cetuximab [reference compound], the Severe skin rash result in data set [1] is given as “approximately 90 % of patients”. In addition, the “Binding to Cal-27 cells (DAB staining on membranes)” value in data set [2] is recorded as “binding”.
